Source: patent publication US4886915A, “Water soluble organic ammonium per halides” (priority 1988, dated 1989)
Like-named read-outs stand apart in the source and are kept apart here.

How the values were obtained:
[1] = water
[2] = closed bottle, 29200 h
[3] = closed bottle, 17520 h
[4] = Titration for oxidizable bromine (Standard Methods for the Examination of Water and Waste Water, Method 408A); conditions: Table 3; crystalline perbromide precipitated out of aqueous solution
[5] = Vapor pressure of aqueous organic ammonium perbromides (isoteniscope); conditions: @ 26° C.; Table 9

Row | Substance | Solubility [1] | Relative Change in % Br2 [2] | also measured
1 | 1,6-Hexanediammonium [compound 16] | 50 |  | 
2 | Diethanolammonium Perbromide [Compound #4] |  | 18.9% | 
3 | Diethanolammonium Perbromide [compound 23] |  | 26.2% | Relative Change in % Br2 [3]: 10.9%
4 | Diethylammonium Perbromide [compound 15] |  |  | Tit. Ox. Br [4]: 47.9 % by Weight
5 | Dipropylammonium Perbromide [compound 10] | 10 g./100 g H2O |  | 
6 | Ethanolammonium Perbromide [Compound #17] |  |  | Vp [5]: 57 mmHg
